ChEMBL document CHEMBL4706608, “Design and synthesis of 3-(4-pyridyl)-5-(4-sulfamido-phenyl)-1,2,4-oxadiazole derivatives as novel GSK-3β inhibitors and evaluation of their potential as multifunctional anti-Alzheimer agents” (Eur J Med Chem, 2021)

Experiment: Efflux ratio of apparent permeability across basolateral to apical membrane to apical to basolateral membrane in MDCK2-MDR1 measured upto 120 mins
Type: ADME, tissue-based, Canis lupus familiaris
Conditions: dog, mdck-ii, 2 h

`CN1C(=O)CN=C(c2ccccc2)c2cc(Cl)ccc21` [DIAZEPAM] gave a Ratio of 0.89.
